{
  "sequences": {"note": "The chains behind the UniProt entries cited, without tags or fusion partners. Residues count along the entry.", "UniProt Q14680, 1-340": "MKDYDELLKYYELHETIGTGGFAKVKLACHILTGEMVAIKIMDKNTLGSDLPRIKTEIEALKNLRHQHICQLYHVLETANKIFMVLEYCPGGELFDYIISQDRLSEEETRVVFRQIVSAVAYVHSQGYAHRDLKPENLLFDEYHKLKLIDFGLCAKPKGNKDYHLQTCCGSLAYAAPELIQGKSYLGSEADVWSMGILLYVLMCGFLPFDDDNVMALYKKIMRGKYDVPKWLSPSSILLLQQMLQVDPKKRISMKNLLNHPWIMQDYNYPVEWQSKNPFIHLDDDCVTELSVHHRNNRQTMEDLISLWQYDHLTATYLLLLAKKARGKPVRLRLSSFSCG"},
  "source": "paper PMC4833387",
  "about": "“OTSSP167 Abrogates Mitotic Checkpoint through Inhibiting Multiple Mitotic Kinases” (PLoS ONE, 2016)",
  "biological_target": "T1, maternal embryonic leucine zipper kinase (MELK) (Homo sapiens, UniProt Q14680)",
  "T1 construct": "GST-MELK^(1–340)",
  "experiment": "in vitro […] kinase assay with recombinant kinase from E. coli",
  "format": "biochemical",
  "note": "pIC50: −log10 of the molar value.",
  "data": [
    {"smiles": "CC(=O)c1cnc2ccc(-c3cc(Cl)c(O)c(Cl)c3)nc2c1N[C@H]1CC[C@H](CN(C)C)CC1", "note": "[OTSSP167]", "values": [
      {"measurement": "pIC50", "value": "~8.10"}
    ]}
  ]
}
